PubChem BioAssay AID2637 (Johns Hopkins Ion Channel Center, 2010)
The list shows a part of the results, in another mix than the full data. The source made the active and inactive calls.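 Rule for the calls: active = calcium signal ratio cut to more than 3 SD under the fully stimulated control mean yet still positive, in both repeats and the primary screen; inactive = the rest.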

Chains of the proteins cited; added tags and fusions are not shown.
UniProt Q9QUQ5, whole entry: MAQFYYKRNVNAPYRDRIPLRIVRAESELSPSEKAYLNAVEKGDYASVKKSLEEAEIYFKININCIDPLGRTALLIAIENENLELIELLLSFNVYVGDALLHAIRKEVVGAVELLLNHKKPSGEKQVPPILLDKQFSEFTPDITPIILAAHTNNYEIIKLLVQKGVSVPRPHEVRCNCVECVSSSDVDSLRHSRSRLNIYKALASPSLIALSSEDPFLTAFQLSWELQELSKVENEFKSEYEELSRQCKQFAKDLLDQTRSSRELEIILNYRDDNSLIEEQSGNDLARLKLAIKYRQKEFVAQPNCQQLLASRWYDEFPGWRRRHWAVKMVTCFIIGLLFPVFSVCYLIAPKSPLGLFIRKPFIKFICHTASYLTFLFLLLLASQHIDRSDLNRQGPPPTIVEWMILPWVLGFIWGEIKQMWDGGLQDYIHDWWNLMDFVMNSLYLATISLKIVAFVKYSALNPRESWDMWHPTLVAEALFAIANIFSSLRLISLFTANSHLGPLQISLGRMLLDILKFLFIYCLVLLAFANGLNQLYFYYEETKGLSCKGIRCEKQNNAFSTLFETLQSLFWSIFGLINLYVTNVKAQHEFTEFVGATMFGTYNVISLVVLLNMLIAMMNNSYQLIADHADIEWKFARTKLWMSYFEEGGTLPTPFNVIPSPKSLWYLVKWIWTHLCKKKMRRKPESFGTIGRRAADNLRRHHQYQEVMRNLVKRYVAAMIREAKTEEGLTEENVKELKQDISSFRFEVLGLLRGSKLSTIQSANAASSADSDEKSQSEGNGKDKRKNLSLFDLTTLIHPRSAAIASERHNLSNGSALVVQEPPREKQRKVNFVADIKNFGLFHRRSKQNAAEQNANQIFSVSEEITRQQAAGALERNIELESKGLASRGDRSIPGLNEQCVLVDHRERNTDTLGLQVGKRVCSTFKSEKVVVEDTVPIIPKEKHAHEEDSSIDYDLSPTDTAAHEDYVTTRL

Biological target: Short transient receptor potential channel 4 (Mus musculus) (UniProt Q9QUQ5)
Assay: blockers of DAMGO-evoked TRPC4 calcium flux – cell-based, second round, Fluo4, HEK293 TRPC4beta/mu-opioid, 1 µM, confirmation (AID 2637);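 for inhibition: percent of integrated ratio relative to wells lacking test compound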
Settings: at 1 µM; hits give high values

| SMILES | inhibition |
| --- | --- |
| CN(C)CCOC(=O)C(O)(c1ccccc1)C1CCCC1 (stereo not drawn) | active: 62% |
| CN(C)C1(CNC(=O)c2ccc(Cl)c(S(N)(=O)=O)c2)CCCCC1 | inactive |
| CCN(CC)CCCOC(=O)C(O)(c1ccccc1)c1ccccc1 | inactive |
